Molecules are shown by their SMILES. This is a selection; strong and weak results do not stand in their true shares. Calls of active or inactive are those of the source.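 The calls were made as follows: active = compounds whose plate-normalised and pattern-corrected inhibition of the luciferase reporter signal at the single screening dose is 50% or more; inactive = the rest.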

As usually defined, the inhibition is the relative decrease from the control value, in per cent.

The assay in a line: inhibitors of TROY-driven NF-kB signaling, primary screen, Q293 LMP1-TROYcd cells, NF-kB luciferase, uHTS (AID 1347056). Particulars: Q293 LMP1-TROYcd NF-kB luciferase reporter, 4 h; at 10 µM; hits give high values. (In general: A reporter such as luciferase makes a cellular process visible.)
As for `O=[N+]([O-])c1cc(Oc2ccc([N+](=O)[O-])cc2C(F)(F)F)cc([N+](=O)[O-])c1`, the inhibition is inactive: -12.4%.

For the compound `COc1ccc(N/C(=N/P(=O)(N2CCOCC2)N2CCOCC2)N2CCOCC2)cc1`, the inhibition was inactive: -16.4%.

As for `Cc1c2c(nc3ccccc13)SC(C(Cl)Cl)C2` (centres undefined), the inhibition was inactive: -20.7%.

For `O=C(OC1CN2CCC1CC2)C12CC3CC(CC(C3)C1)C2` (centres undefined), the inhibition was inactive: 1.47%.

For `Cc1cc(=O)[nH]c(N[N+](=O)[O-])n1`, the inhibition is inactive: 3.41%.

`O=P1(N(CCCl)CCCl)Nc2ccccc2N1`: the inhibition is inactive: -37.1%.

`O=P1(N(CCCl)CCCl)OCCCN1CCCl` (centres undefined): the inhibition is inactive: -3.44%.

Turning to `COc1ccc2nc(NP(=O)(c3ccccc3)c3ccccc3)sc2c1`, the inhibition was inactive: 1.21%.

In the case of `COc1cc(I)ccc1[As](=O)(O)O`, the inhibition is inactive: -10.8%.

`ClCCSc1nnc(-c2cccnc2)o1`: the inhibition is inactive: -44.4%.

With `COC(=O)C1(C)COP(=O)(N2CCCCCC2)OC1` (centres undefined), the inhibition is inactive: 3.87%.

Consider `CC(C)c1ccc(OP(=O)(Nc2ccccn2)Oc2ccccc2F)cc1` (centres undefined), for which the inhibition was inactive: -3.89%.

Turning to `CC(C)NC(=O)NP(=O)(Oc1ccccc1)Oc1ccccc1`, the inhibition was inactive: 2.81%.

`O=C(OC1CN2CCC1CC2)c1cccc2[nH]cnc12` (centres undefined): the inhibition was inactive: -3.77%.

For `CCN(CC)C(=S)SC(NC=O)C(Cl)(Cl)Cl` (centres undefined), the inhibition is inactive: 4.65%.

Regarding `O=[N+]([O-])c1cc([N+](=O)[O-])c(-c2ccn[nH]2)s1`, the inhibition was inactive: -2.48%.

As to `C[As](=O)(O)c1cccc(C(=O)O)c1`, the inhibition was inactive: -2.09%.

`O=[As](O)(c1ccc(O)cc1)c1ccccc1O`: the inhibition was inactive: -1.86%.

As to `O=[N+]([O-])c1ccc(-c2cc([N+](=O)[O-])c(O)c([N+](=O)[O-])c2)cc1`, the inhibition is inactive: -10.8%.

As for `COc1cc(C(=O)NCC2(N3CCOCC3)CCCCC2)ccc1OCC(C)C`, the inhibition is inactive: -1.87%.

Turning to `[N-]=[N+]=NC1CCCCC1NC(=O)c1cc([N+](=O)[O-])cc([N+](=O)[O-])c1` (centres undefined), the inhibition was inactive: -14.8%.

Regarding `Cc1ccc(OP(=O)(Nc2ccc([N+](=O)[O-])cn2)Oc2ccc(C)cc2)cc1`, the inhibition is inactive: 10.3%.

In the case of `Cc1ccc2nc3c(c(C)c2c1)CC(C(Cl)Cl)S3` (centres undefined), the inhibition was inactive: -90.8%.

Take `CCOC(=O)Nc1cccc([As](=O)(O)O)c1`: the inhibition is inactive: 0.97%.

On to `O=P(Nc1ccccn1)(c1cccc2ccccc12)c1cccc2ccccc12`, for which the inhibition is inactive: -16%.

`Cc1cc(SC(NC=O)C(Cl)(Cl)Cl)ncn1` (centres undefined): the inhibition was inactive: -1.67%.

Regarding `O=[N+]([O-])c1ccc(Nc2ccc(Oc3ccc([N+](=O)[O-])cc3[N+](=O)[O-])cc2)c([N+](=O)[O-])c1`, the inhibition is inactive: 18.2%.

With `CCOC(=O)Nc1ccc([As](=O)(O)O)c(O)c1`, the inhibition is inactive: -14.3%.

For `O=C(O)C(O)c1ccc(N(CCCl)CCCl)cc1` (centres undefined), the inhibition was inactive: 4.65%.

For `CC1CCNP(=O)(N(CCCl)CCCl)O1` (centres undefined), the inhibition was inactive: 8.32%.

Consider `COP(=O)(OC)N1CC1c1ccccc1` (centres undefined), for which the inhibition was inactive: -0.23%.

As for `CCCCOc1ccc(C(=O)NCC2(N3CCCCC3)CCCCC2)cc1OC`, the inhibition was inactive: 6.33%.

As to `Cc1cc(SC(NC(=O)c2ccccc2)C(Cl)(Cl)Cl)nc(C(C)C)n1` (centres undefined), the inhibition is inactive: -16.1%.

For `O=C(OC1CN2CCC1CC2)c1cccc([N+](=O)[O-])c1` (centres undefined), the inhibition is inactive: 8.86%.

For the compound `CSc1ccc(Nc2c([N+](=O)[O-])cc([N+](=O)[O-])cc2[N+](=O)[O-])cc1`, the inhibition was inactive: 40.3%.

Turning to `CCOC(=O)c1ccc(NC(=O)C(C)(CCl)SC)cc1` (centres undefined), the inhibition was inactive: -10.8%.

`CCC(C)N(CC(C)C)C(=S)SC(NC(C)=O)C(Cl)(Cl)Cl` (centres undefined): the inhibition was inactive: 6.09%.

Turning to `COP1(=S)c2c(C)nn(CCC#N)c2N=C(c2ccc(F)cc2)N1C` (centres undefined), the inhibition was inactive: -3.23%.

`COC(=O)C1(C)COP(=O)(N2CCCC2)OC1` (centres undefined): the inhibition was inactive: 5.87%.

As for `O=C(O)C(=O)c1ccc(N(CCCl)CCCl)cc1`, the inhibition is inactive: 0.32%.

Regarding `O=C(COc1ccccc1)OC1CN2CCC1CC2` (centres undefined), the inhibition was inactive: 0.11%.

For the compound `O=C(Nc1ccncc1[N+](=O)[O-])c1ccc([N+](=O)[O-])cc1[N+](=O)[O-]`, the inhibition is inactive: 30.2%.

`COc1ccccc1CNC(=O)COC(=O)C(O)(c1ccccc1)c1ccccc1`: the inhibition is inactive: -2.73%.

Regarding `CC(C)/C=N\N=C(\N)N[N+](=O)[O-]`, the inhibition was inactive: 13.8%.

Regarding `CN(C(=O)Cc1ccc(Cl)c(Cl)c1)[C@@H]1CCCC[C@H]1N1CCCC1`, the inhibition was inactive: -4.13%.

As for `CC1(CBr)Cn2c(nc3ccccc3c2=O)S1` (centres undefined), the inhibition is inactive: 12.5%.

As to `O=P1(Nc2ccccn2)COc2ccccc2OC1`, the inhibition was inactive: 4.07%.

Consider `CCC1=CC2Cc3nc4ccc(Cl)cc4c(N)c3C(C1)C2` (centres undefined), for which the inhibition was inactive: 23.2%.

Consider `CCOP(=O)(NC(=NC(C)c1ccccc1)NC(C)c1ccccc1)OCC` (centres undefined), for which the inhibition is inactive: -14.8%.

As to `CCOP(=O)(Nc1ccc(C)cn1)OCC`, the inhibition is inactive: 19%.

With `CN(CCCl)Cc1cc(Cl)c(NC2=NCCN2)c(Cl)c1`, the inhibition is inactive: -5.5%.

As for `O=P1(N(CCCl)CCCl)NCCC(C(F)(F)F)O1` (centres undefined), the inhibition is inactive: -5.26%.

`Clc1n[nH]nc1-c1nn[nH][15n]1`: the inhibition is inactive: 3.72%.

As for `CC(C)(C)C(=O)NC(Sc1ncccn1)C(Cl)(Cl)Cl` (centres undefined), the inhibition was inactive: -7.33%.

For `Cc1ccc(S(=O)(=O)N(CCCN)CCCc2c(C)nc(N)[nH]c2=O)cc1`, the inhibition was inactive: 3.34%.

In the case of `O=P1(Nc2ncccn2)COc2ccccc2OC1`, the inhibition is inactive: 18.1%.

In the case of `Nc1cccc([As](=O)(O)c2ccccc2)c1`, the inhibition was inactive: 5.07%.

In the case of `O=[As](O)(c1cccs1)c1cccs1`, the inhibition is inactive: -15.8%.

As for `Cc1ccc(OCC(=O)OC2CN3CCC2CC3)cc1` (centres undefined), the inhibition was inactive: -15.2%.

Take `O=P1(Nc2ccc(Br)cn2)COc2ccccc2OC1`: the inhibition is inactive: 6.49%.

As to `NS(=O)(=O)c1cccc(NC(=O)COC(=O)C(O)(c2ccccc2)c2ccccc2)c1`, the inhibition is inactive: 8.41%.

Consider `Cc1nn(-c2ccccc2)c2c1P(=O)(N1CCOCC1)N(C)C(c1ccccc1)=N2` (centres undefined), for which the inhibition was inactive: -28.7%.

For `CC1CCC(C(C)C)C(OP(=O)(Nc2ccccn2)c2ccccc2)C1` (centres undefined), the inhibition is inactive: 10.3%.

With `Cc1ccc(C(=O)OC2CN3CCC2CC3)cc1` (centres undefined), the inhibition was inactive: 3.09%.

The record behind these values is PubChem BioAssay AID1347056 (Sanford-Burnham Center for Chemical Genomics, 2019).
